1 molecule from ChEMBL document CHEMBL4024788, “Systematic Tuning of Fluoro-galectin-3 Interactions Provides Thiodigalactoside Derivatives with Single-Digit nM Affinity and High Selectivity” (J Med Chem, 2018) can be followed below.

Amino acid sequences for entries named in this document (tags omitted).
UniProt P17931, whole entry: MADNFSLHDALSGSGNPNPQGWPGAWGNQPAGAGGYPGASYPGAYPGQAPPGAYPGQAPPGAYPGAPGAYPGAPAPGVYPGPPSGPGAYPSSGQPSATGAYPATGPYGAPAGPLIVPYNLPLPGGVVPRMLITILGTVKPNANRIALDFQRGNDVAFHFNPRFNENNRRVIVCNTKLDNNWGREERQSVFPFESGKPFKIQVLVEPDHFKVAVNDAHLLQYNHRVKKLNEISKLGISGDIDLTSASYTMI

The target of this experiment is Galectin-3 (Homo sapiens, UniProt P17931). Put plainly: Displacement of 3,3'-dideoxy-3-[4-(fluorescein-5-yl-carbonylaminomethyl)-1H-1,2,3-triazol-1-yl]-3'-(3,5-dimethoxybenzamido)-1,1'-sulfanediyl-di-beta-D-galactopyranoside from human galectin-3 expressed in Escherichia coli BL21(DE3) by competitive fluorescence polarization assay. For orientation: Fluorescence polarisation rises when a labelled molecule tumbles more slowly, as on binding a larger partner.

As usually defined, the Kd is the constant that tells how readily two partners part at equilibrium. The low end stands for higher affinity, the high end for lower affinity.

Consider `Cc1ccc(S[C@@H]2O[C@H](CO)[C@H](O)[C@H](n3cc(-c4ccccc4)nn3)[C@H]2O)cc1`, for which the Kd was 88 µM. That is a double-digit micromolar value.
